Experimental findings from PubChem BioAssay AID463187 (University of Pittsburgh Molecular Library Screening Center, 2010) are described below.

The chains behind the UniProt entries cited, without tags or fusion partners.
UniProt P08631, whole entry, looked up: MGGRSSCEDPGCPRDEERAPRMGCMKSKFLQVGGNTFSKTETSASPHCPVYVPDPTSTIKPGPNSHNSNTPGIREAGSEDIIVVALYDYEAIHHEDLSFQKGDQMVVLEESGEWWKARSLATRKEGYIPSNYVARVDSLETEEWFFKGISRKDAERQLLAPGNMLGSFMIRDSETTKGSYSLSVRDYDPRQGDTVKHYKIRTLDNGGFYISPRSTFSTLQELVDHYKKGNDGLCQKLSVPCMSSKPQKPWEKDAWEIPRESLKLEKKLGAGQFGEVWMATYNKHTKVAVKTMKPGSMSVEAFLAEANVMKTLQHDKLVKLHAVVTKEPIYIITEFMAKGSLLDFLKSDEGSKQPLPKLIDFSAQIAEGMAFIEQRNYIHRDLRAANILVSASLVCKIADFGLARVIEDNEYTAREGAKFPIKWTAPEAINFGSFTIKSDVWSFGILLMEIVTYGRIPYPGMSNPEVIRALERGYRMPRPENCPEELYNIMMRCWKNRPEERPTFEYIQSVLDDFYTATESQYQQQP

Only a part is listed here, and it is no random draw. The source made the active and inactive calls.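 How the source made its calls: active means Hck-Nef kinase inhibition above about 50% (limit read from the data); inactive means inhibition below that limit.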

In general, inhibition refers to the relative decrease from the control value, in per cent.

This test concerns the target Tyrosine-protein kinase HCK (Homo sapiens) (UniProt P08631). As to the kind of experiment: Hck:Nef complex kinase activity blockers – biochemical, Z-Lyte FRET, 384-well, Hck-YEEI, primary screen (AID 463187).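 Further: 0% = DMSO with Hck plus Nef and 100% = Hck alone without Nef.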 The following applies: Recombinant Hck-YEEI plus Nef, Z-Lyte FRET kinase assay; at 20 µM; hits give high values.
As for `O=C(O)c1cccc(Nc2c([N+](=O)[O-])cc([N+](=O)[O-])cc2[N+](=O)[O-])c1`, the inhibition was inactive: 10%.
In the case of `CC1=NCCc2c1[nH]c1ccccc21.O=[N+]([O-])c1cc([N+](=O)[O-])c(O)c([N+](=O)[O-])c1` it was inactive: -1.5%.
Take `Cc1cc(C)cc(OP(C)(=O)Nc2ccc(C)cc2C)c1` (stereo not drawn): the inhibition is inactive: 0.969%.
Then `CCOC(=O)c1ccc(NP(C)(=O)Oc2cc(C)cc(C)c2)cc1` (stereo not drawn), with inactive: 0.221%; and `COc1ccccc1OP(C)(=O)Nc1cccc(Br)c1` (stereo not drawn), with inactive: 13.3%.
Then `Cc1cc(C)cc(OP(C)(=O)Nc2ccccn2)c1` (stereo not drawn), with inactive: -8.8%.
With `CP(=O)(Nc1cccc(Br)c1)Oc1ccccc1` (stereo not drawn), the inhibition was inactive: -3.06%.
In the case of `Cc1ccc(C)c(NP(C)(=O)Oc2ccccc2)c1` (stereo not drawn), the inhibition was inactive: 1.74%.
`O=[N+]([O-])c1cc([N+](=O)[O-])c(-n2nnc3ccccc32)c([N+](=O)[O-])c1`: the inhibition is inactive: 36.4%.
`Cc1nc2ccc3ccccc3c2s1.O=[N+]([O-])c1cc([N+](=O)[O-])c(O)c([N+](=O)[O-])c1`: the inhibition is inactive: 1.41%.
Then `O=[N+]([O-])c1cc([N+](=O)[O-])c(Nc2nnnn2CCO)c([N+](=O)[O-])c1`, with inactive: 24.7%; and `CCOC(=O)C(CC)C1=NC(C)(C)Cc2ccccc21.O=[N+]([O-])c1cc([N+](=O)[O-])c(O)c([N+](=O)[O-])c1` (stereo not drawn), with inactive: 9.59%.
In the case of `CCCOc1ccc(NP(C)(=O)Oc2ccc(Cl)cc2)cc1` (stereo not drawn) it was inactive: 17.2%.
`CP(=O)(Nc1ccc(SC(F)(F)F)cc1)Oc1ccccc1` (stereo not drawn): the inhibition is inactive: 2.99%.
With `CN1CCCCC1COC(=O)C1(O)c2ccccc2CCc2ccccc21` (stereo not drawn), the inhibition was inactive: 5.85%.
In the case of `COc1ccccc1OP(C)(=O)Nc1c(C)cccc1C` (stereo not drawn) it was inactive: 0.941%; in that of `COc1ccccc1OP(C)(=O)Nc1ccccc1` (stereo not drawn), inactive: 8.44%; in that of `CP(=O)(Nc1ccccc1Br)Oc1ccccc1` (stereo not drawn), inactive: -1.89%.
Regarding `CP(=S)(Nn1cnnc1)Oc1ccccc1` (stereo not drawn), the inhibition is inactive: 2.07%.
Then `CP(=O)(NC(=O)Nc1ccccc1)Oc1ccccc1` (stereo not drawn), with inactive: -0.112%; and `CCc1ccc(OP(C)(=O)N2CCN(c3ccc([N+](=O)[O-])cc3)CC2)cc1` (stereo not drawn), with inactive: 6.13%.
With `Cc1cc(C)cc(OP(C)(=O)Nc2ccc(SC(F)(F)F)cc2)c1` (stereo not drawn), the inhibition is inactive: -0.436%.
Regarding `CP(=O)(Nc1ccc(SC(F)(F)F)cc1)Oc1ccc(Cl)cc1` (stereo not drawn), the inhibition was inactive: 21.4%.
Then `Cc1cccc(C)c1OP(C)(=O)Nc1ccc(SC(F)(F)F)cc1` (stereo not drawn), with inactive: 1.18%; and `CP(=O)(Oc1ccccc1)OC(c1ccccc1)C(F)(F)F` (stereo not drawn), with inactive: 18.9%; and `CP(=O)(Nc1ccccn1)Oc1ccc(Cl)cc1` (stereo not drawn), with inactive: 2.57%.
In the case of `CCOP(C)(=S)SCC(=O)NC(C)C(=O)O` (stereo not drawn) it was inactive: -8.91%; in that of `CCOC(=O)c1ccc(NP(C)(=O)Oc2ccc(OC)cc2)cc1` (stereo not drawn), inactive: 2.59%; in that of `CCN(CC)CCCOC(=O)C(O)(c1ccccc1)c1ccccc1`, inactive: 18.9%.
In the case of `CC(C)(C)c1ccc(OP(C)(=O)Nc2ccc(SC(F)(F)F)cc2)cc1` (stereo not drawn) it was inactive: 1.37%.
Turning to `Cc1cccc(C)c1OP(C)(N)=O` (stereo not drawn), the inhibition was inactive: -3.85%.
For `O=[N+]([O-])c1ccc2c(c1)C=Nc1ccccc1O2`, the inhibition was inactive: 19.5%.
In the case of `COc1ccccc1OP(C)(=O)Nc1cc(Cl)ccc1C` (stereo not drawn) it was inactive: 20.1%.
For `COc1ccc(OP(C)(=O)Nc2cccc(F)c2)cc1` (stereo not drawn), the inhibition is inactive: 3.83%.
For `Cc1cc(C)cc(OP(C)(N)=O)c1` (stereo not drawn), the inhibition is inactive: 20.5%.
Consider `CCOC(=O)c1ccc(NP(C)(=O)Oc2ccccc2)cc1` (stereo not drawn), for which the inhibition was inactive: 6.08%.
As to `COc1ccccc1OP(C)(=O)Nc1ccc(C)cc1` (stereo not drawn), the inhibition was inactive: -2.08%.
`Cc1ccc(NP(C)(=O)Oc2ccccc2)c(C)c1` (stereo not drawn): the inhibition is inactive: -3.65%.
With `COc1ccc(OP(C)(=O)Nc2ccccc2Br)cc1` (stereo not drawn), the inhibition was inactive: 2.35%.
For `COc1ccccc1OP(C)(=O)Nc1ccc(C)c(C)c1` (stereo not drawn), the inhibition is inactive: 0.416%.
On to `Cc1cc(C)cc(OP(C)(=O)Nc2cccc(C(F)(F)F)c2)c1` (stereo not drawn), for which the inhibition was inactive: 21.8%.
Regarding `CP(=O)(Nc1ccc(Cl)cc1Cl)Oc1ccccc1` (stereo not drawn), the inhibition was inactive: 17.9%.
Then `CP(=O)(OCCOc1ccccc1)OCCOc1ccccc1`, with inactive: -0.672%.
`Cc1nc2ccc3ccccc3c2o1.O=[N+]([O-])c1cc([N+](=O)[O-])c(O)c([N+](=O)[O-])c1`: the inhibition is inactive: 1.77%.
Take `CN(C)CCOC(=O)C(O)(c1ccccc1)C1CCCC1` (stereo not drawn): the inhibition is inactive: 1.79%.
In the case of `COc1ccc(OP(C)(=O)Nc2ccccn2)cc1` (stereo not drawn) it was inactive: -0.706%.
Turning to `COc1ccccc1OP(C)(=O)Nc1ccc(Br)cc1` (stereo not drawn), the inhibition was inactive: 10.7%.
Take `CCc1ccc(OP(C)(=O)O)cc1`: the inhibition is inactive: 1.28%.
As for `CP(=O)(Nc1ccccn1)Oc1ccccc1` (stereo not drawn), the inhibition was inactive: -0.252%.
In the case of `COc1ccccc1OP(C)(=O)Nc1ccc(C)cc1C` (stereo not drawn) it was inactive: -1.96%; in that of `Cc1c(NP(C)(=O)Oc2ccc(C(C)C)cc2)c(=O)n(-c2ccccc2)n1C` (stereo not drawn), inactive: 1.2%; in that of `O=[N+]([O-])c1cc([N+](=O)[O-])c(Nc2ccccn2)c([N+](=O)[O-])c1`, inactive: 18.7%.
Take `CP(=O)(Oc1ccccc1)N1CCOC1=O` (stereo not drawn): the inhibition is inactive: 0.148%.
Regarding `CCc1ccc(OP(C)(=O)Nc2cccnc2)cc1` (stereo not drawn), the inhibition is inactive: -13.8%.
Regarding `COc1ccccc1OP(C)(=O)Nc1c(C)n(C)n(-c2ccccc2)c1=O` (stereo not drawn), the inhibition was inactive: -0.89%.
Then `O=C(OCCCN1CCCC1)C(O)(c1ccccc1)C1CCCCC1` (stereo not drawn), with inactive: 14.2%; and `CCN(CC)CC(O)COC(=O)C(O)(c1ccccc1)C1CCCCC1` (stereo not drawn), with inactive: 2.36%.
As for `COc1ccc(OP(C)(=O)Nc2ccc(Br)cc2)cc1` (stereo not drawn), the inhibition is inactive: -0.0369%.
Then `CN(C)C(=O)c1c([N+](=O)[O-])cc([N+](=O)[O-])cc1[N+](=O)[O-]`, with inactive: 23.2%; and `CP(=O)(Nc1ccc(Cl)cc1)Oc1ccc(F)cc1` (stereo not drawn), with inactive: 0.413%; and `COc1ccccc1OP(C)(=O)Nc1ccccc1Br` (stereo not drawn), with inactive: 26.3%.
In the case of `CC(C)(C)c1ccc(OP(C)(=O)O)cc1` it was inactive: -18.3%.
Then `CP(=O)(OC12CC3CC(CC(C3)C1)C2)OC12CC3CC(CC(C3)C1)C2`, with inactive: 2.6%.
